Measured values taken from US20240294525A1, “COMPOUNDS AS GLP-1 RECEPTOR AGONISTS AND USES THEREOF” (CGENETECH (SUZHOU, CHINA) CO., LTD., priority 2021, published 2024).

Chains of the proteins cited; added tags and fusions are not shown. Residues count along the entry.
UniProt P43220, 24-463 limits assumed: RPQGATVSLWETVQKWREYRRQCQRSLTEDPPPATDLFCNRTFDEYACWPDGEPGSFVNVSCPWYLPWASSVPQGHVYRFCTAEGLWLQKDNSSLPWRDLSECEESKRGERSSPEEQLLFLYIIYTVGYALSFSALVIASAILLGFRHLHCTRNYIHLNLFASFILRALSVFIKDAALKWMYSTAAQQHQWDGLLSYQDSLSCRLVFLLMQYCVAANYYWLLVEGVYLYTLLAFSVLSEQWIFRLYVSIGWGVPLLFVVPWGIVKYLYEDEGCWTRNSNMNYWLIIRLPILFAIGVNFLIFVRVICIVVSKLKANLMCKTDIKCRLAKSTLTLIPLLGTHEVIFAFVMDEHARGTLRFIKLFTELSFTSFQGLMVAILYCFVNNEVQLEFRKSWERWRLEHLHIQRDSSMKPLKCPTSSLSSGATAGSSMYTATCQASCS

Assays:
[1] = Oral pharmacokinetics in mice; format: in vivo; conditions: male C57 mice, intragastric, 10 mg/kg
Method: Compounds 1, 2, 6, 7, 8, 9, 10, 11, 13, 17, 18, and 19 of the present application and a known control medicament PF-06882961 were subjected to a pharmacokinetic test by using the following experimental procedures:
Healthy male C57 mice (9 mice per compound, n=3), purchased from Shanghai Jihui Laboratory Animal Care Co., LTD, with an age of 6-8 weeks.
The mice were fasted overnight before oral administration, and drunk freely, and feeding was resumed after 4 h of the administration. According to the weight of the mice weighed before the administration, the administration dose was calculated. It was intragastrically administered, and the administration dose was 10 mg/kg. At 0.083 h, 0.25 h, 0.5 h, 1 h, 2 h, 4 h, 8 h, and 24 h after the administration to test animals, about 110 μL of whole blood were respectively collected from submandibular veins of the mice by a semi-continuous method, and placed in a test tube containing K2EDTA. The tube was placed on ice, and centrifuged within 30 min (2000 g, 5 min, 4° C.), plasma was collected, transferred to an appropriately labeled test tube, and frozen at −80° C. in a refrigerator.
A chromatographic column was Waters ACQUITY UPLC BEH C18 (2.1×50 mm, and 1.7 μm); mobile phase A: H2O-0.025% FA-1 mM NH4OAC, mobile phase B: ACN-0.025% FA-1 mM NH4OAC, flow rate: 0.60 mL/min, gradient elution program: start, 2% B, 0.2 min; 60% B, 0.7 min; 90% B, 1.50 min; 90% B, 2.0 min; 2% B, 2.01 min; 2.6 min, and stop; column temperature: 50° C.; and injection volume: 1 μL.
Mass spectrometry method: LC-MS/MS-49 (Triple Quad 6500+)(SCIEX, USA), the ion source was an ESI source, the detection mode was positive ion detection, and the scanning mode was a multi-reaction monitoring (MRM) mode, m/z: 446.20/321.10 Da (Glipizide, internal standard).
10 μL of a plasma sample was taken and 200 μL of an internal standard working solution (Glipizide, 50 ng/mL) was added, vortex was performed for 1 min, then the mixture was centrifuged at 5800 rpm for 10 min. 70 μL of a supernatant was transferred to a 96-well plate, and 1 μL of the supernatant was taken and injected into LC-MS/MS for analysis.
Pharmacokinetic (PK) parameters were calculated by using Phoenix WinNonlin 7.0; and the oral pharmacokinetic parameters of the mice, including AUC, Cmax, Tmax, T1/2 and the like, were estimated by using a non-compartmental model. Results of the oral pharmacokinetic parameters of Compounds 1, 2, 6, 7, 8, 9, 10, 11, 13, 17, 18, and 19 and PF-06882961 in the mice are shown in Table 2. PGP-46 T2

GLP-1R = GLP-1R (Homo sapiens, UniProt P43220); assay: GLP-1R cAMP experiment (HTRF cAMP agonist detection); format: cell-based; conditions: GLP-1R-HEK293 cells

Compound | AUC(0-t) [1] [ng·h/mL] | AUC(0-∞) [1] [ng·h/mL] | Cmax [1] [ng/mL] | MRT(0-t) [1] [h] | MRT(0-∞) [1] [h] | T1/2 [1] [h] | Tmax [1] [h] | half-life (T1/2) and/or overall exposure (AUC) compared with PF-06882961 [1] | EC50 (GLP-1R) [nM]
C#Cc1ccc(COc2cccc(N3CCN(Cc4nc5c(F)cc(C(=O)O)cc5n4C[C@@H]4CCO4)CC3)n2)c(F)c1 | 3587.0 | 3596.0 | 2960.0 | 1.7 | 1.7 | 3.1 | 0.25 | longer half-lives (T1/2) and/or higher overall exposure doses (AUC) | –
C#Cc1ccc(COc2cccc(N3CCN(Cc4nc5ccc(C(=O)O)nc5n4C[C@@H]4CCO4)CC3)n2)c(Cl)c1 | 4152.0 | 4383.0 | 1763.0 | 1.8 | 2.3 | 2.1 | 0.50 | longer half-lives (T1/2) and/or higher overall exposure doses (AUC) | 0.36
C#Cc1ccc(COc2nc(C3CCN(Cc4nc5ccc(C(=O)O)cc5n4C[C@@H]4CCO4)CC3)ccc2F)c(F)c1 | – | – | – | – | – | – | – | – | 0.57
C#Cc1ccc(COc2nc(N3CCN(Cc4nc5ccc(C(=O)O)nc5n4C[C@@H]4CCO4)CC3)ccc2F)c(C)c1 | – | – | – | – | – | – | – | – | 1.3
